Experimental data reported in patent publication US20240408183A1, “KYNURENINE AMINOTRANSFERASE AND PRODUCTS THEREOF FOR THE TREATMENT OF INFLAMMATORY BOWEL DISEASES” (Institut National De Recherche Pour L'Agriculture, …, priority 2021, published 2024).

Tested on: mice submitted to DSS-induced colitis
Assay: DSS-induced colitis model in mice
Assay type: in vivo, mouse (C57BL/6JRj)
Conditions: oral, each day, 8 mg of KYNA / 6 mg of XANA per mouse; measured daily; DSS 2%
Description: C57BL/6JRj from Janvier lab, 7 weeks old, were housed in our specific pathogen free animal facility at IERP (INRA, Jouy en Josas, France). Five to ten female mice per group were used in all experiment, were maintained in a temperature controlled (23° C.) facility with a strict 12 h light/dark cycles and were given free access to food and water. After one acclimation week, we changed water with DSS 2% (MP Biomedical) during 7 days (day 0 to day 7), and a
recovery period was practiced until day 12 (during 5 days). Body weight loss and DAI (disease activity index) were performed daily. After 12 days the samples were harvested.
Colon distal part (cut in three parts) was harvested at day 12 after DSS model and put directly in PFA (Rothi®—Histofix 4%) during 48 h and transferred in ethanol 70% until the standard pre-fixation automat and paraffin embedded. HES coloration was practiced on 5Im cut.
Data were analyzed using Prism version 7 (Graphpad Software, San Diego, USA). The non-parametric Mann Withney test or the parametric one-way ANOVA tests with multiple Bonferroni's comparison tests were performed. Values are expressed as mean±SEM. Statistical significance was defined at a p-value ****<0.0001, ***<0.001, **<0.01, *<0.05.

O=C(O)c1cc(O)c2cccc(O)c2n1 [XANA, xanthurenic acid]
activity index of colitis (DAI): anti-inflammatory effect
